Data published in article PMC7077804.

Experiments:
[1] = molecular target: cardiac tropomyosin (porcine) (pig) (UniProt P42639); experiment: SPR; Biacore 2000; tropomyosin immobilised on a CM5 chip by amino coupling at 150 RU; troponin flowed at 0.01-10 uM; n = 3
[2] = molecular target: cardiac actin (from pig) (pig); experiment: SPR; Biacore 2000; cardiac G-actin (from pig) immobilised on a CM5 chip by amino coupling at 150 RU; troponin flowed at 0.01-10 uM; n = 3
[3] = molecular target: cardiac G-actin (from pig) (pig); experiment: SPR; Biacore 2000; cardiac G-actin (pig) or tropomyosin immobilised on CM5 chips by amino coupling at 150 RU; troponin flowed at 0.01-10 uM
[4] = molecular target: N-terminal fragment of cardiac myosin binding protein C, domains C0-C2 (cMyBPC-C0C2) (human) (UniProt Q14896); experiment: MST; Monolith NT.115; His6-cMyBPC-C0C2 labelled with RED-tris-NTA, dilution series of cTn complexes or subunits; fit to the Hill function
[5] = molecular target: cardiac tropomyosin (porcine) (UniProt P42639); experiment: SPR; Biacore 2000; cardiac G-actin (pig) or tropomyosin immobilised on CM5 chips by amino coupling at 150 RU; troponin flowed at 0.01-10 uM

Work on “human cardiac troponin complex containing wildtype cTnI (from UniProt P63316 1-161; P45379 1-298)” yielded a koff [1] of 32.4 s⁻¹, a kon [1] of 1.58e+07 M⁻¹ s⁻¹ and a koff [2] of 0.0207 s⁻¹. For the same substance, the kon [2] was 3880 M⁻¹ s⁻¹.

“human cardiac troponin complex containing wildtype cTnI (from UniProt P19429 1-210; P45379 1-298; P63316 1-161)” showed a Kd [3] of 5340 nM.

Substance “human cardiac troponin complex containing wildtype cTnI (from UniProt P19429 1-210; P45379 1-298; P63316 1-161) (complex; other documents disagree on this pair)” has a Kd [4] of 337 nM.

“human cardiac troponin complex containing cTnI-R170G (from UniProt P19429 1-210; P63316 1-161; P45379 1-298)” showed a koff [1] of 3.1 s⁻¹, a kon [1] of 2.86e+07 M⁻¹ s⁻¹ and a koff [2] of 0.0174 s⁻¹. It also gave a kon [2] of 5430 M⁻¹ s⁻¹.

For “human cardiac troponin complex containing cTnI-R170W (from UniProt P19429 1-210; P63316 1-161; P45379 1-298)”, the koff [1] was 1.63 s⁻¹, the kon [1] was 7.1e+06 M⁻¹ s⁻¹ and the koff [2] was 0.0165 s⁻¹. It also gave a kon [2] of 2610 M⁻¹ s⁻¹.

With “human cardiac troponin complex containing cTnI-R170W (from UniProt P19429 1-210; P45379 1-298; P63316 1-161) (complex; other documents disagree on this pair)” the Kd [4] was 336 nM.

For “human cardiac troponin complex containing cTnI-R170W (from UniProt P19429 1-210; P45379 1-298; P63316 1-161)”, the Kd [3] was 6320 nM.

For “human cardiac troponin complex containing cTnI-R170G (from UniProt P19429 1-210; P45379 1-298; P63316 1-161) (complex; other documents disagree on this pair)”, the Kd [4] was 211 nM.

In the case of “human cardiac troponin complex containing cTnI-R170G (from UniProt P19429 1-210; P45379 1-298; P63316 1-161)”, the Kd [3] is reported as 3200 nM and the Kd [5] is reported as 120 nM.
